{"source": "patent US20240082215A1", "about": "“USE OF MGLUR5 ANTAGONISTS FOR TREATING GAMBLING DISORDER” (published 2024)", "test_system": "nucleus accumbens (NAcc)/ventral striatum (VS)", "test": "fMRI monetary incentive delay task (MIDT), between-subject, placebo-controlled", "conditions": "90 min prior to fMRI"}
{"smiles": "COC(=O)N1CC[C@@H]2[C@H]1CCC[C@@]2(O)C#Cc1cccc(C)c1", "values": [{"measurement": "fMRI signal in left and right NAcc/VS, A1 phase of the MIDT, response to losses, FHN individuals", "setting": "AUD family history negative (FHN) individuals, 200 mg mavoglurant one time, modified release formulation, vs placebo", "result": "essentially unresponsive to drug"}, {"measurement": "fMRI signal in left and right NAcc/VS, A1 phase of the MIDT, response to losses, FHP individuals", "setting": "AUD family history positive (FHP) individuals, 200 mg mavoglurant one time, modified release formulation, vs placebo, interaction p<0.001, uncorrected", "result": "reduced by mavoglurant in FHP individuals to levels equivalent to or below those of FHN individuals"}, {"measurement": "circuit activity (neural activity) in FHP individuals compared with FHN individuals on placebo", "setting": "FHP individuals, 200 mg one time, p<0.001", "result": "appears to “normalize” circuit activity in FHP individuals"}]}
